Experimental data: patent US9758541B2 (priority 2013, dated 2017)

Test system: MDA-MB-231 cells (non-hormone-dependent breast cancer cells)
Assay: Cell proliferation assay (MTS, 72 h) on MDA-MB-231 cells
Assay type: cell-based
Details: Table 4, compounds of the invention vs chlorinated analogs

“5-chloro-2-ferrocenyl-1,1-bis-(4-hydroxyphenyl)-pent-1-ene” was tested. Which IC50 did it give?
The IC50 was 4.63 µM.
